Laboratory results published in patent US9044437B2, “Method for treating alzheimer's disease using pharmacological chaperones to increase the activity of gangliosidases” (Amicus Therapeutics, Inc., priority 2009, dated 2015).

How the values were obtained:
[1] = biological target: T1, wild-type endogenous neuraminidase 3 (Neu3) (Homo sapiens, UniProt Q9UQ49); assay: Neu3 levels in SHSY-5Y neuroblastoma cells (immunoblot, densitometry); assay type: cell-based; conditions: SHSY-5Y cells, increasing doses, 72 hours
T1 construct: increases wild-type endogenous neuraminidase 3 (Neu3) levels in SHSY-5Y neuroblastoma cells; endogenous in cells; host or cells: SHSY-5Y neuroblastoma cells
T1 sequence (Q9UQ49 1-428): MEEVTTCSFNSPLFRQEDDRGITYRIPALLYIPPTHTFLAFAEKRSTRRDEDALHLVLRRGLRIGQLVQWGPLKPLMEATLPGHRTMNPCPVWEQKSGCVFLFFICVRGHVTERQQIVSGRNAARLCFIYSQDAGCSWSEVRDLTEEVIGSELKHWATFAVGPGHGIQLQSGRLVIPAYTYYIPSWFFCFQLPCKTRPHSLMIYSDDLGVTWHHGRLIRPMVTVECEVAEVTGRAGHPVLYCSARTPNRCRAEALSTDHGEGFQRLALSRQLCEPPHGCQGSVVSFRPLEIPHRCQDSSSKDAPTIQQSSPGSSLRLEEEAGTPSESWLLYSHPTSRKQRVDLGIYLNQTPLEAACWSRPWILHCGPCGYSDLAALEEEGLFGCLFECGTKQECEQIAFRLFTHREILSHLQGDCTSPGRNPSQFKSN

Neu 4 = biological target: T2, Neu 4 (Homo sapiens, UniProt Q8WWR8); conditions: marked *: Values reported in the literature; cited from earlier work
T2 sequence (Q8WWR8 1-484): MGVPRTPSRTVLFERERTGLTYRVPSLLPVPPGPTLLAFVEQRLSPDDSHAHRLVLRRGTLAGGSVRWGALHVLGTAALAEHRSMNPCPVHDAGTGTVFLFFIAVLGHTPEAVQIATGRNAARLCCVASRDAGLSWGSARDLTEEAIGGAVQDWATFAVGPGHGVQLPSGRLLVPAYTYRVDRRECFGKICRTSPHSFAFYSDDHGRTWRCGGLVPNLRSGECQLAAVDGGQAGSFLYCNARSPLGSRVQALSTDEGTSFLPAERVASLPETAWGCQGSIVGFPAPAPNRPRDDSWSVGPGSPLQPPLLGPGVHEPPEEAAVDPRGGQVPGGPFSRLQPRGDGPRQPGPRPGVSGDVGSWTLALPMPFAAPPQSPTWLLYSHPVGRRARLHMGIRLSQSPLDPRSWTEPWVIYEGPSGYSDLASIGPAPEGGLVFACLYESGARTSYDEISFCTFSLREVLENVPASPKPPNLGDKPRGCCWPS

wild-type endogenous neuraminidase 3 (Neu3) levels [1]: increases
Substance: 5-(acetylamino)-4-[(aminoiminomethyl)-amino]-2,6-anhydro-3,4,5-trideoxy-D-glycero-D-galacto-non-2-enonic acid [Zanamivir]
IC50 (Neu 4): 690 µM
